In this experiment the target is alpha-amylase (Bacillus licheniformis, UniProt P06278). The conditions noted are these: pH 5.8; for relative stabilizing effect in words: 95° C., comparison among acids tested.

By UniProt entry, the sequences of proteins in these tests, tags left out. Residues count along the entry.
UniProt P06278, 30-512: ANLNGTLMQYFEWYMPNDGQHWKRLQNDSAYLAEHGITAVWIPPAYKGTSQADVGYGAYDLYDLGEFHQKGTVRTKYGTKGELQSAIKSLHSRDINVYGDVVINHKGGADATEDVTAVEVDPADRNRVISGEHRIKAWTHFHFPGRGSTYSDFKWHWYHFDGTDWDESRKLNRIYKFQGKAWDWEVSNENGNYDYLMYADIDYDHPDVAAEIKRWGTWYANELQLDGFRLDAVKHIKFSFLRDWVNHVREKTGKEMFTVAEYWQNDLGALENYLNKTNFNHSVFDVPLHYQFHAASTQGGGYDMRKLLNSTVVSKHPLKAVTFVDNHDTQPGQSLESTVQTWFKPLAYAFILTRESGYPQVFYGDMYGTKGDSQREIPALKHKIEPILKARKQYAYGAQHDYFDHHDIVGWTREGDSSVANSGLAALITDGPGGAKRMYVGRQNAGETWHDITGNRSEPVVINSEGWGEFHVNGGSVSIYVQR

The structures appear in SMILES notation. Like-named read-outs stand apart in the source and are kept apart here.

Regarding `O=C(O)c1ccccc1` [Benzoic acid, benzoic acid], the “relative stabilizing effect in words” value is “least effective”. Moreover, the “(-Δ G°) stabilization free energy, R T ln F” value (95° C. (T = 368K)) came to 0.9 K cal/mole. For the same compound, the “relative stabilizing effect in words” value (listed as benzoic acid) is “least amount of stabilization”.

Source of the values: patent US4717662A (priority 1985, dated 1988).
